To fix the notation:
B3: ε subunit of DNA polymerase III holoenzyme (enzyme)
chain: MSTAITRQIVLDTETTGMNQIGAHYEGHKIIEIGAVEVVNRRLTGNNFHVYLKPDRLVDPEAFGVHGIADEFLLDKPTFAEVADEFMDYIRGAELVIHNAAFDIGFMDYEFSLLKRDIPKTNTFCKVTDSLAVARKMFPGKRNSLDALCARYEIDNSKRTLHGALLDAQILAEVYLAMTGGQTSMAFAMEGETQQQQGEATIQRIVRQASKLRVVFATDEEIAAHEARLDLVQKKGGSCLWRA
notes: mature; also called epsilon

In experiment [1] the target is B3. Kind of experiment: densitometric analysis of the εθ complex.
For experiment [2], the target named is B3. Kind of experiment: cell-based or functional assay.
For experiment [3], the target named is T1, δ′ subunit of DNA polymerase III holoenzyme (holB gene product) (E. coli, UniProt P28631 1-334).
T1 construct: The preparation is a mixture of two polypeptides, δ′S (size predicted by the gene) and δ′L (521 Da larger), about 2:1; It is monomeric; also called delta prime; cloned δ′
T1 sequence: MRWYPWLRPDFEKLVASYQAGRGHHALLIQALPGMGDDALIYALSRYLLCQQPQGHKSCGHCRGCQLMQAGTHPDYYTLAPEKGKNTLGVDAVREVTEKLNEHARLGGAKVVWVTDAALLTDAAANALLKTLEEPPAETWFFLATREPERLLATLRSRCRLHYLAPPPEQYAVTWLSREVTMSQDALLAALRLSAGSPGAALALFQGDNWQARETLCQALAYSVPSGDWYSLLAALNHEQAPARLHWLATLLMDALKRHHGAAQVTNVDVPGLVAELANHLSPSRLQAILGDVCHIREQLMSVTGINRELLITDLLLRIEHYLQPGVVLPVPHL
Description: densitometry of Coomassie Blue stained gel of the δδ′ complex.

Experiment [4] concerns the target T2, α subunit of DNA polymerase III holoenzyme (E. coli, UniProt P10443 1-1160).
T2 construct: mature; also called alpha
T2 sequence: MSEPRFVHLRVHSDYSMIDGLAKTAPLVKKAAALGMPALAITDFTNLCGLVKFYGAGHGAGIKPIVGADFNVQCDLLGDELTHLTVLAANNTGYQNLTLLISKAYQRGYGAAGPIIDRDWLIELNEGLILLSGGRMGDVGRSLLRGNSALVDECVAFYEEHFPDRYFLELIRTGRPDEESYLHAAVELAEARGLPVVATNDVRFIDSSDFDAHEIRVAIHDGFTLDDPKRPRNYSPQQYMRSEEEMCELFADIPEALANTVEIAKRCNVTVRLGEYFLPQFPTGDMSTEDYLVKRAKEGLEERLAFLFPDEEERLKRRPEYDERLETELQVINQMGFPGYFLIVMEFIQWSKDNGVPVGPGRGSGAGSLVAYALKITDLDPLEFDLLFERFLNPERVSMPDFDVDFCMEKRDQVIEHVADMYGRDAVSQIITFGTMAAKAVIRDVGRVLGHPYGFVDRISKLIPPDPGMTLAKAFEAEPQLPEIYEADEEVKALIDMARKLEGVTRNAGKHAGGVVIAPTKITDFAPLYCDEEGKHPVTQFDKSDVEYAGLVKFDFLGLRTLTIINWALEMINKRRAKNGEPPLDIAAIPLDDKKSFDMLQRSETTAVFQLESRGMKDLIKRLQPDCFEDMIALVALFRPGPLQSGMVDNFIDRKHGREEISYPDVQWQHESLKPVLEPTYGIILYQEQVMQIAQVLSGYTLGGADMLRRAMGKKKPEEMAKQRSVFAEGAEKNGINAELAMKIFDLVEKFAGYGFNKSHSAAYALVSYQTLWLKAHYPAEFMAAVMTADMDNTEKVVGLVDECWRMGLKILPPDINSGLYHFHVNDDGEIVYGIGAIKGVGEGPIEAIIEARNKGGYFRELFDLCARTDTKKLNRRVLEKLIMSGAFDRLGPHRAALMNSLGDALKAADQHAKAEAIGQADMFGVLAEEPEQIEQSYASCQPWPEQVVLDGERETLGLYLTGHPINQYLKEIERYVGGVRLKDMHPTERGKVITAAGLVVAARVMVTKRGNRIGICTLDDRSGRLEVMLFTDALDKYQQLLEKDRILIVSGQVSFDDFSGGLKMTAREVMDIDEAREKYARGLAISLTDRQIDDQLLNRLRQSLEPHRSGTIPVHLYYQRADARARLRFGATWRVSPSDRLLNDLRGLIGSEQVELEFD
Kind of experiment: gel filtration at 73 µM α and 73 µM ε. On the technique in general: Size exclusion chromatography separates by hydrodynamic size, large species first.

The source of these data is patent publication US6875852 (CORNELL RESEARCH FOUNDATION, dated 2005).

B1: θ subunit of DNA polymerase III holoenzyme (holE gene product) (other)
chain: MLKNLAKLDQTEMDKVNVDLAAAGVAFKERYNMPVIAEAVEREQPEHLRSWFRERLIAHRLASVNLSRLPYEPKLK
notes: 76 amino acids, printed in three-letter code and converted here; Monomer; also called theta
As to B1, the “molar ratio in the εθ complex” value in experiment [1] stood at 0.8 mol θ per mol ε. Further, the “3′→5′ exonuclease activity of ε (excision of a 3′ mismatched T residue)” value in experiment [2] is 3 fold.

B2: δ subunit of DNA polymerase III holoenzyme (holA gene product) (other)
chain: MIRLYPEQLRAQLNEGLRAAYLLLGNDPLLLQESQDAVRQVAAAQGFEEHHTFSIDPNTDWNAIFSLCQAMSLFASRQTLLLLLPENGPNAAINEQLLTLTGLLHDDLLLIVRGNKLSKAQENAAWFTALANRSVQVTCQTPEQAQLPRWVAARAKQLNLELDDAANQVLCYCYEGNLLNLAQALERLSLLWPDGKLTLPRVEQAVNDAAHFTPFHWVDALLMGKSKRALHILQQLRLGGSEPVILLRTLQRELLLLVNLKRQSAHTPLRALFDKHRVWQNRRGMMGEALNRLSQTQLRQAVQLLTRTELTLKQDYGQSVWAELEGLSLLLCHKPLADVFIDG
notes: Overproduced from pETdelta and purified; 343 amino acids; Monomer in gel filtration and sedimentation; also called delta; cloned δ
Consider B2, for which the “molar ratio δ:δ′ in the complex” value in experiment [3] turned out to be 1.1 mol δ per mol δ′.
Turning to B3, the binding result in experiment [4] was “binds”.
